The values that follow come from patent US20060217418A1, “Substituted alkyl amido piperidines” (priority 2001, published 2006).

Chains of the proteins cited; added tags and fusions are not shown. Lines headed by an entry give the natural chain unless they say otherwise; changes in a name come on top.
UniProt P97639: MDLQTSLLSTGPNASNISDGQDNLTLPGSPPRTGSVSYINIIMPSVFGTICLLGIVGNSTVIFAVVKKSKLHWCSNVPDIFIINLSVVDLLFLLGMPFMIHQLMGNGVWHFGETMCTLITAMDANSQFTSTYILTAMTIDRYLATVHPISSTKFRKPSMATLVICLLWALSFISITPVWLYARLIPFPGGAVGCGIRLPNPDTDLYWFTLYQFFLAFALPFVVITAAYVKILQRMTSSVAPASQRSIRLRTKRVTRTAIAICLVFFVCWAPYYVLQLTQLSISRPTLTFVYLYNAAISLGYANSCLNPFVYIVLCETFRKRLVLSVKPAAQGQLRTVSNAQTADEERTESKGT

One may read the pKi as the Ki on a negative log10 scale, so that one unit is a factor of ten.

pKi: −log10 of the molar value.

The experiment concerns the target rat MCH1 receptor (Rattus norvegicus, UniProt P97639). As to the kind of experiment: Radioligand binding assay at cloned rat MCH1 receptor ([3H]Compound A). The settings on record: read-out: Ki(MCH-1); cloned rat MCH1, Peakr293 cell membranes, 0.08 nM [3H]Compound A, 25° C., 90 minutes.

Turning to `Cc1ccc(NC(=O)C(C)C)cc1C1CCN(CCCNC(=O)C(O)(c2ccccc2)c2ccccc2)CC1`, the pKi is 9.30.
The same measure for `CC(C)C(=O)Nc1cc(C2CCN(CCCNC(=O)C(O)(c3ccccc3)c3ccccc3)CC2)c(F)cc1F`: 8.17; for `CC(C)C(=O)Nc1cncc(C2CCN(CCCNC(=O)C(O)(c3ccc(F)cc3)c3ccc(F)cc3)CC2)c1`: 8.28.
For the compound `CC(C)C(=O)Nc1cncc(C2CCN(CCCNC(=O)C(O)(c3ccccc3)c3ccccc3)CC2)c1`, the pKi was 7.46.
For `Cc1ccc(NC(=O)C(C)C)cc1C1CCN(CCCNC(=O)C(O)(c2ccc(F)cc2)c2ccc(F)cc2)CC1`, the pKi is 9.15.
In the case of `Cc1ccc(NC(=O)C(C)C)cc1C1CCN(CCCNC(=O)C(O)(c2ccccc2Cl)c2ccccc2Cl)CC1` it was 8.03; in that of `Cc1ccc(C(O)(C(=O)NCCCN2CCC(c3cc(NC(=O)C(C)C)ccc3C)CC2)c2ccc(C)cc2)cc1`, 8.96; in that of `Cc1ccc(C(O)(C(=O)NCCCN2CCC(c3cncc(NC(=O)C(C)C)c3)CC2)c2ccc(C)cc2)cc1`, 7.80.
Take `Cc1ccc(C(O)(C(=O)NCCCN2CCC(c3cc(NC(=O)C(C)C)c(F)cc3F)CC2)c2ccc(C)cc2)cc1`: the pKi is 8.27.
In the case of `CC(C)C(=O)Nc1cc(C2CCN(CCCNC(=O)C(O)(c3ccc(F)cc3)c3ccc(F)cc3)CC2)c(F)cc1F` it was 8.44.
